According to patent EP4678648A1, “SYNTHESIS METHOD OF ANTIBODY-DRUG CONJUGATES USING PROXIMITY EFFECT-BASED SITE-SELECTIVE ANTIBODY LABELING” (Sogang University Research Business Development Foundation, priority 2023, dated 2024):
pKd: −log10 of the molar value.

Target: FcRn (Neonatal Fc Receptor)
Assay: SPR (BIAcore T200), FcRn amine-coupled on CM5 chip, antibody 1.96-31.25 nM flowed, pH 6.0 or 7.4 not given, 1:1 fit; Table 4 taken as the FcRn table

pKd: 9.22
Substance: Trastuzumab-(VC-PABC-MMAE)2 (antibody)
